Data on one molecule can be found in PMC10685803 (RSC Chemical Biology, 2023).

For the assay, the target named is SUMO−1 (residues 1–97 hSUMO1) (human, UniProt P63165 1-97). Kind of assay: NMR titration.

B1: ^15N-NSIM-DHB_(DAXX)/FAM-SPEP7 complex (pre-formed, saturated) (complex)
chain: MATANSIIVLDDDDEDEAAAQPGPSHPLPNAASPGAEAPSSSEPHGARGSSSSGGKKCYKLENEKLFEEFLELCKMQTADHPEVVPFLYNRQQRAHSLFLASAEFCNILSRVLSRARSRPAKLYVYINELCTVLKAHSAKKKLN
modifications: FAM on the N-terminus; hydrocarbon staple i,i+7 (R8 to S5), positions in Fig. 4C
On to B1, for which the dissociation constant (Kd) was roughly 22 µM.

For orientation: Kd means the concentration at which binding is half-saturated.
